Assay results reported in ChEMBL document CHEMBL5344440, “Fragment Merging, Growing, and Linking Identify New Trypanothione Reductase Inhibitors for Leishmaniasis” (J Med Chem, 2024).

Target: Trypanothione reductase (Leishmania infantum) (UniProt A4HSF7)
Test: Inhibition of Leishmania infantum Trypanothione reductase expressed in Escherichia coli BL21 (DE3) assessed as enzyme residual activity using trypanothione as substrate at 100 uM preincubated for 3 mins followed NADPH addition by spectrophotometric analysis

Activity: 78.5%
Compound: CN1CCN(C(=O)c2ccc(F)cc2)CC1
